Assay results published in US20260124194A1 (priority 2022, published 2026).
Values joined by “and” are separate entries in the source; they are usually repeats but may differ in a detail not shown here. Identical values can stand only once. Like-named read-outs stand apart in the source and are kept apart here. Marks after values point to notes of the source that are not given here.

What was measured:
[1] = tested on: neuronal and glia cells (SOX10+, HuCD+); conditions: mouse, in vivo, ip
[2] = tested on: subjects with idiopathic Chronic Intestinal Pseudo-Obstruction (CIPO); conditions: in vivo
Source text: Visits where assessed at the beginning of the screening period (Visit 1), at the beginning and at the end of each period of treatment (Visit 2 to Visit 9) and at the end of the follow-up period (Visit 10).
PLA=matching placebo once daily for 4 weeks.
Gastrointestinal symptom severity (abdominal pain, bloating, nausea and vomiting) and bowel habit (weekly recall) were registered on Day −1 and weekly after randomization, during both treatment and washout periods, as appropriate according to the Schedule of Assessments using an e-diary until end of follow up period.
Subjects were instructed to take three capsules of medication orally, once daily at approximately the same time each morning, on an empty stomach, with water.
The Primary efficacy endpoints was to evaluate the change in weekly global gastrointestinal symptoms average index score (WGGSAIS) from start to the end of each treatment period.
The WGGSAIS was obtained by averaging the scores for each of the 4 symptoms assessed weekly: abdominal pain, bloating, nausea and vomiting, with lower scores representing better health. If at least 2 symptoms were assessed, the average score was calculated, otherwise, it was considered missing.
Change between the end of treatment and pre-treatment WGGSAIS value≤−1 point was computed and considered a “success” while changes >−1 were considered a “failure”. The proportion of subjects with a 1-point improvement in WGGSAIS is summarized by treatment sequence, period and timepoint (weekly evaluation by e Diary.
Considering the evaluable pairs, the proportions of pairs of observations with 1-point improvement in WGGSAIS is summarized by treatment and timepoint. […]

[3] = tested on: cholinergic neurons (ChAT+); conditions: mouse, in vivo, po
nNOS and ChAT proteins = conditions: mouse, in vivo, po
[4] = tested on: subjects with idiopathic Chronic Intestinal Pseudo-Obstruction (CIPO); conditions: in vivo; remark: listed apart in the source
[5] = tested on: Rb1 cKO retinoblastoma mice; conditions: mouse, in vivo, ip
[6] = tested on: diabetic and idiopathic gastroparesis subjects; conditions: human, in vivo; cited from earlier work
[7] = tested on: subjects with idiopathic Chronic Intestinal Pseudo-Obstruction (CIPO)
[8] = tested on: AKT/mTOR/p70s6k signal pathway; conditions: mouse, in vivo, po
[9] = tested on: Prp-SCA7-92Q transgenic mice; assay: Bowel dilatation in Prp-SCA7-92Q transgenic mice; format: in vivo; conditions: Prp-SCA7-92Q mice
[10] = tested on: Hu+ neurons with ataxin-7 inclusions; conditions: mouse, in vivo, po
calretinin neurons = conditions: mouse, in vivo, po
5-HT4 receptor mRNA = conditions: mouse, in vivo, ip
MAP2+ neurons [11] = conditions: mouse, in vivo, ip
[12] = tested on: 5HT4 serotoninergic receptor mRNA; conditions: mouse, in vivo
MAP2+ neurons [13] = conditions: mouse, in vivo, po
ChAT+ myenteric neurons = conditions: mouse, in vivo, ip
nitrergic neurons (NOS+) = conditions: mouse, in vivo, po

## CC(C)n1c(=O)c(C(=O)N[C@H]2C[C@H]3CC[C@@H](C2)N3C[C@@H](O)CN(C)S(C)(=O)=O)cc2ccccc21 [velusetrag, 1-isopropyl-2-oxo-1,2-dihydroquinoline-3-carboxylic acid {(1S,3R,5R)-8-[(R)-2-hydroxy-3-(methanesulfonyl-methyl-amino)propyl]-8-azabicyclo[3.2.1]oct-3-yl}amide]
[1]
  HuCD+ mm^2, DSI: 386 ± 11 mm^2 and 328.8 ± 10 mm^2
  HuCD+ mm^2, Proximal colon: 662 ± 32 mm^2 and 642 ± 7.8 mm^2
  SOX10+ mm^2, DSI: 501.9 ± 19 mm^2 and 314 ± 12^∘∘∘ mm^2
  SOX10+ mm^2, Proximal colon: 726 ± 32 mm^2 and 542 ± 10**^∘∘ mm^2
[2]
  Bristol scale class Constipation at the end of treatment, n pairs: 0
  Pseudo-obstruction episodes in the group: 4 episodes
  frequency of constipation at the end of treatment: 0%
  mean change in number of weekly bowel movements: 1.7±2.34
  mean change in number of weekly complete evacuations: 0.7±1.21
  mean number of weekly bowel movements: 4.8±2.14
  mean number of weekly complete evacuations: 2.2±1.17
  pairs classified as Diarrhea at end of treatment, %: 75.00%
  pairs classified as Normal at end of treatment, %: 25.00%
  pairs with 0 pseudo-obstruction episodes during treatment period, %: (90.00) %
  pairs with 0 pseudo-obstruction episodes during wash-out period, %: (100.00) %
  vomiting symptom score, mean: 0.5±0.95
  vomiting symptom score, mean difference between velusetrag and placebo in changes between pre-treatment and end of treatment: −0.8±1.44
[3]; 1 mg/kg
  % neurons (ChAT+) with ataxin-7 inclusions, Proximal colon: 27.8 ± 1.1 %
  % neurons ChAT+ with ataxin-7 inclusions, DSI: 14.3 ± 1.0 %
  Neurons ChAT+ field (0.26 mm^2), Proximal colon: 94.4 ± 2.4^∘ field (0.26 mm^2)
  Neurons ChAT+/field (0.26 mm^2), DSI: 73.3 ± 1.8^∘∘ /field (0.26 mm^2)
[3]; 3 mg/kg
  % neurons (ChAT+) with ataxin-7 inclusions, Proximal colon: 24.6 ± 1.5 %
  % neurons ChAT+ with ataxin-7 inclusions, DSI: 13.6 ± 0.9 %
  Neurons ChAT+ field (0.26 mm^2), Proximal colon: 81.9 ± 2.4 field (0.26 mm^2)
  Neurons ChAT+/field (0.26 mm^2), DSI: 67.2 ± 1.5^∘ /field (0.26 mm^2)
nNOS and ChAT proteins; 1 mg/kg
  CHAT/Actin cytoplasm: 0.94
  nNOS/Actin cytoplasm: 1.12
nNOS and ChAT proteins; 3 mg/kg
  CHAT/Actin cytoplasm: 0.93
  nNOS/Actin cytoplasm: 0.91
[4]
  Orocecal transit time, between-treatment difference of changes: −16.4
  Orocecal transit time, mean: 162.9 ± 67.32 min and 162.9 min
  Orocecal transit time, mean change between velusetrag and placebo: −81.8
  Orocecal transit time, mean change from Visit 1 (Screening): -6.4 ± 118.70 min and -6.4 min
[5]
  DSI diameter: 1.48 ± 0.02 mm and 1.44 ± 0.01 mm
  Prox Colon diameter: 1.65 ± 0.01 mm and 1.58 ± 0.01***^∘ mm
[6]
  gastric emptying (GE) time: effective to accelerate gastric emptying
[7]; Safety Set
  treatment-related TEAEs and cardiovascular adverse reactions: no treatment-related TEAEs were observed and no cardiovascular adverse reactions were observed
[7]; Safety Set, 17 subjects
  deaths, serious TEAEs, TEAEs leading to discontinuation or interruption: No deaths, serious TEAEs, or TEAEs leading to treatment discontinuation or treatment interruption were reported
[7]; all regimens studied
  overall safety and tolerability: safe and well-tolerated
[8]; 1 mg/kg
  AKT/Actin: 3.0 ± 0.6
  P70S6K: 3.4 ± 1.0
  mTOR/Actin: 6.4 ± 2.0
  pAKT/Actin: 6.4 ± 1.7
  pmTOR/Actin: 7.5 ± 2.4
[8]; 3 mg/kg
  AKT/Actin: 2.0 ± 0.5
  P70S6K: 1.5 ± 0.5^∘
  mTOR/Actin: 1.7 ± 0
  pAKT/Actin: 3.6 ± 1.3
  pmTOR/Actin: 2.4 ± 1.2
[9]; 1 mg/kg po once daily 5 weeks
  DSI diameter (bowel dilatation): 1.44 mm
  Prox colon diameter (bowel dilatation): 1.75 mm
[9]; 3 mg/kg po once daily 5 weeks
  DSI diameter (bowel dilatation): 1.44 mm
  Prox colon diameter (bowel dilatation): 1.72 mm
[10]; 1 mg/kg
  % neurons Hu+ with ataxin-7 inclusions, DSI: 22.3 ± 0.04****^∘ %
  % neurons Hu+ with ataxin-7 inclusions, Proximal colon: 24.1 ± 0.03****^ %
  Total neurons Hu+, DSI: 91 ± 7.8^∘
  Total neurons Hu+, Proximal colon: 145.1 ± 8.9^∘∘
[10]; 3 mg/kg
  % neurons Hu+ with ataxin-7 inclusions, DSI: 13.6 ± 0.02****^∘∘∘ %
  % neurons Hu+ with ataxin-7 inclusions, Proximal colon: 17.8 ± 0.02****^∘ %
  Total neurons Hu+, DSI: 99.9 ± 2.6^∘
  Total neurons Hu+, Proximal colon: 175.2 ± 2.9^∘∘∘∘
Calretinin neurons; 1 mg/kg
  Neurons Calretinin+/field (0.26 mm^2), DSI: 25.4 ± 0.7 /field (0.26 mm^2)
  Neurons Calretinin+/field (0.26 mm^2), Proximal Colon: 44.3 ± 2.0**^∘∘ /field (0.26 mm^2)
Calretinin neurons; 3 mg/kg
  Neurons Calretinin+/field (0.26 mm^2), DSI: 24.3 ± 1.0 /field (0.26 mm^2)
  Neurons Calretinin+/field (0.26 mm^2), Proximal Colon: 49.1 ± 1.8*^∘∘∘ /field (0.26 mm^2)
5-HT4 receptor mRNA
  mRNA 5HT4, DSI: 0.87 ± 0.03^∘ and 1.02 ± 0.09^∘
  mRNA 5HT4, Proximal colon: 0.88 ± 0.02 and 1.10 ± 0.05
MAP2+ neurons [11]
  Total (MAP2+) neurons/field (0.26 mm^2), DSI: 72.3 ± 2.3^∘ neurons/field (0.26 mm^2) and 81.4 ± 2.7^∘∘ neurons/field (0.26 mm^2)
  Total (MAP2+) neurons/field (0.26 mm^2), Proximal colon: 93.8 ± .4^∘ neurons/field (0.26 mm^2) and 79.8 ± 4.2 neurons/field (0.26 mm^2)
[12]
  5HT4R mRNA expression levels in DSI and colon: not altered
MAP2+ neurons [13]; 1 mg/kg
  Total Neurouns (MAP2+)/Field (0.26 mm2), DSI: 69 ± 1.8 /Field (0.26 mm2)
  Total Neurouns (MAP2+)/Field (0.26 mm2), Proximal colon: 160 ± 3.0 /Field (0.26 mm2)
MAP2+ neurons [13]; 3 mg/kg
  Total Neurouns (MAP2+)/Field (0.26 mm2), DSI: 64.55 ± 1.5 /Field (0.26 mm2)
  Total Neurouns (MAP2+)/Field (0.26 mm2), Proximal colon: 157 ± 4.0 /Field (0.26 mm2)
ChAT+ myenteric neurons
  ChAT+ myenteric neurons/Field (0.41 mm^2), Proximal colon: 169.7 ± 4.8 neurons/Field (0.41 mm^2) and 187.4 ± 5.9 neurons/Field (0.41 mm^2)
Nitrergic neurons (NOS+); 1 mg/kg
  Neurons NOS+ field (0.26 mm^2), Proximal colon: 31 ± 1.5**^∘∘ field (0.26 mm^2)
  Neurons NOS+/field (0.26 mm^2), DSI: 22.0 ± 0.6*^∘∘∘∘ /field (0.26 mm^2)
Nitrergic neurons (NOS+); 3 mg/kg
  Neurons NOS+ field (0.26 mm^2), Proximal colon: 32 ± 1.0**^∘∘∘∘ field (0.26 mm^2)
  Neurons NOS+/field (0.26 mm^2), DSI: 19.9 ± 0.5**^∘∘∘ /field (0.26 mm^2)
